The target in series [1] is T1, CYP1A2 (Homo sapiens, UniProt P05177). The settings on record: both, 30 min, 5 μM.
Series [2] has as its target T1, CYP1A2. Nature of the series: in vitro. Conditions: both, microsomes.

Sequences of proteins named here, by UniProt entry; tags and fusion partners are left off.
UniProt P05177, whole entry: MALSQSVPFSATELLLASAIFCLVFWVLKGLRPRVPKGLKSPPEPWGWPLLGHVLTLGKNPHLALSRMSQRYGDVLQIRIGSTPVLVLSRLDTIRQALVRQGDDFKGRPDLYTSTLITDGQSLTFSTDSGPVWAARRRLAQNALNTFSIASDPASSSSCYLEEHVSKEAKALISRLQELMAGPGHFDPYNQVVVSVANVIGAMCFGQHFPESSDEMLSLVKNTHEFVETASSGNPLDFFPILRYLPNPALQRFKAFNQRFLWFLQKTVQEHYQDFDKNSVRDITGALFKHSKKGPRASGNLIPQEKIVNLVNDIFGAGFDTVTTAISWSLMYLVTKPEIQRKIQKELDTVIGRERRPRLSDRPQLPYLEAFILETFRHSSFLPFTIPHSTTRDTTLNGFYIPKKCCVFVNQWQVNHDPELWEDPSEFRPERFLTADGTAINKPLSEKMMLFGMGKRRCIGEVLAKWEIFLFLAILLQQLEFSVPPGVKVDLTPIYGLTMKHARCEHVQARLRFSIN

On to `Cc1nc2c([nH]1)c(=O)n(C)c(=O)n2Cc1ccco1` [FUR, furafylline, reference compound], for which the “Phenacetin AC Production” value on CYP1A2 [1] was 54.5 ± 1.3 pmol/mg protein/min. On CYP1A2 [2], the inhibition at 30 min, 5 μM worked out at 54%.

The inhibition is the share of the control response that was lost under treatment. Lower therefore signals a response near the control.

The record behind these values is patent US20040039053A1, “Use of(-) (3-halomethylphenoxy) (4-halophenyl) acetic acid derivatives for treatment of insulin resistance, type 2 diabetes, hyperlipidemia and hyperuricemia” (priority 2000, published 2004).
